Measurements taken from patent US20230270828A1, “COMPOSITION FOR USE IN THE TREATMENT OF VIRAL INFECTIONS” (BICT S.R.L., priority 2020, published 2023).

System: Vero cells (Monkey Kidney Epithelial Cells)

Substance: polylysine [PREP 3]
- CC50: 560 ± 210 µg/mL
- maximum nontoxic concentration (assumed): 0.4 mg/mL
